Binding of CDR-mutated scFvs to a peptide of the spike HR2 region

Reference: Engelhart et al. 2022, doi:10.1038/s41597-022-01779-4. File: FLAb, binding data.

Target: peptide PDVDLGDISGINAS, taken from heptad repeat 2 (HR2) of SARS-CoV-2 spike.

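Library AAYL49 holds single substitutions and randomly drawn double and triple substitutions in the CDRs. Affinity was read by AlphaSeq, a pooled yeast mating assay with surface-displayed partners. The frequency of each diploid, read from paired DNA barcodes, reflects how well the two displayed proteins bind. Scores were corrected for input abundance and mapped to Kd with protein pairs of known affinity run in the same pool. Mating was done three times.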

Ab-14 is the parent antibody, in scFv form: VH, then the linker GGGGSGGGGSGGGGS, then VL. The light chain is unchanged in all variants.
VH: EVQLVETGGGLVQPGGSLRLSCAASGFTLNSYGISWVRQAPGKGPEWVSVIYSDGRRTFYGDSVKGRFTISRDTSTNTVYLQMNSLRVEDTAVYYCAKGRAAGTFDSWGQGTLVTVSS
VL: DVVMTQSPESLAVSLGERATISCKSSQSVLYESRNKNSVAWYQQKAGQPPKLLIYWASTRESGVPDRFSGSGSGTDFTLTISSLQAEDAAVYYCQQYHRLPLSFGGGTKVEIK

Each variant is given by its three heavy chain CDRs, as the data file delimits them; those of the parent are GFTLNSYGIS, VIYSDGRRTFYGDSVK, GRAAGTFDS. The read-out is the apparent dissociation constant on a log10 scale (nM): the lower, the stronger. Averages over replicates are reported, and they cover detected replicates only. Where no diploid with the target was found in that replicate, the entry reads "nd": below detection, most likely a poor binder, though not proof of it. Background: pairings of library AAYL49 with three empty control strains gave a value in 15% of cases (median 4.06, 5th percentile 2.83). Values in that range, when seen in few replicates, are hard to tell from nonspecific mating. The control count says in how many pairings with the empty strains this scFv gave a signal, with their mean in brackets.

| CDR-H1 | CDR-H2 | CDR-H3 | log10 Kd, replicates | log10 Kd (nM), mean | empty controls |
|---|---|---|---|---|---|
| GFTLSSYGIS | VPYSDGRRTFYGDSVK | GLAAGTFDS | nd / nd / nd | nd | 1/9 (3.20) |
| GFTLNSYGIS | VIYSDGRRTFYGDSVS | GHANGTFDS | nd / 2.80 / nd | 2.80 | 1/9 (3.95) |
| GFTLNSYGPS | VIYSDGRRTFYGDSVK | GRALGTKDS | nd / 4.35 / nd | 4.35 | 3/9 (4.32) |
| GFTLMSYGRS | VIYSDFRRTFYGDSVK | GRAAGTFDS | nd / nd / nd | nd | 0/9 |
| GFTLNSYGAS | VIYSDGRRTFYGDSVK | GIAAGTFDK | nd / nd / nd | nd | 0/9 |
| EFTLNSYGIS | VIYWDGRRSFYGDSVK | GRAAGTFDS | 1.66 / 2.21 / 2.32 | 2.06 | 0/9 |
| GFTLNSYGIS | VIYSQGRRTFYGDSVK | GRASGTFDS | nd / nd / nd | nd | 1/9 (4.28) |
| GFTQNSYKIS | VIYSDGRRTFYGDSVK | GRLAGTFDS | 2.69 / 3.39 / nd | 3.04 | 2/9 (4.30) |
| GFTLNEYSIS | VIYSDGRRTFYGDSVK | GRAAGTTDS | 3.95 / 4.86 / nd | 4.40 | 1/9 (2.83) |
| GFTLNTYGIS | VIYSDGRRTFYGDSVV | GRNAGTFDS | 0.65 / 0.86 / 0.75 | 0.76 | 0/9 |
| GFTLNSYGIS | VIYSDGRRTFYGDSVK | GRFAGAFDS | nd / nd / nd | nd | 0/9 |
| GFTLNAYGRS | VIYSDGRRTFYGDSVK | GRAAGTFDS | nd / nd / nd | nd | 0/9 |
| YFTLNSAGIS | VIYSDGRRTFYGDSVK | GRRAGTFDS | nd / nd / 4.84 | 4.84 | 2/9 (4.54) |
| GFTLNSSGDS | VIYSDGRRTFYGDSVK | GRAAGTFDC | nd / 3.68 / 5.16 | 4.42 | 0/9 |
| GFTLNSYGIS | VIYSDGRHTDRGDSVK | GRAAGTFDS | nd / nd / nd | nd | 0/9 |
| GFTLNSYGHS | VIYSDSRRTFYGHSVK | GRAAGTFDS | nd / nd / nd | nd | 1/9 (2.77) |
| GFTLNQYGIS | VIYSDGRRTFYGDSDK | GRWAGTFDS | nd / 2.88 / 4.12 | 3.50 | 0/9 |
| GFAMNSYGIS | VIYSDGRRTQYGDSVK | GRAAGTFDS | nd / nd / nd | nd | 0/9 |
| GFTYNSYGIS | HIYSDGRRTGYGDSVK | GRAAGTFDS | nd / 3.04 / nd | 3.04 | 3/9 (4.32) |
| GFTLNSYGIS | VIYSHGRRTFYGDSCK | GRAAGTFTS | nd / nd / nd | nd | 0/9 |
| GFTLNSYGIS | VIYSHGRRTFYGNSVK | GRAAGTFDP | nd / nd / nd | nd | 2/9 (3.08) |
| GFTLNSYGIF | VIYSMGRRTFYGDSVK | GRAVGTFDS | nd / nd / nd | nd | 0/9 |
| GFTLNSYGIS | VIYSDPRHTFYGDSVK | GRAAGTLDS | nd / 5.31 / 4.06 | 4.68 | 4/9 (4.31) |
| GFTLNSYGIS | VIYSDGRRTFIGDGVK | GRAAGTMDS | nd / 3.58 / 3.41 | 3.49 | 3/9 (4.22) |
| GFTLNEYGIS | VIYSDGRRTFYGDSVK | ERLAGTFDS | nd / nd / nd | nd | 0/9 |
| GFTLNSYGIS | VIYSDGRRTFYGLSKK | GRAAGHFDS | nd / nd / nd | nd | 0/9 |
| QFTLNSYGIS | KIYSDGRRTFYGDGVK | GRAAGTFDS | nd / nd / nd | nd | 0/9 |
| KFTLNSYGIS | VIYSDGRRFFYGKSVK | GRAAGTFDS | 5.63 / 4.66 / nd | 5.14 | 1/9 (4.53) |
| GFTLNSYGIS | VIYSDGRYTFYGDSVK | GRFMGTFDS | nd / nd / nd | nd | 1/9 (3.18) |
| GFTLNSYGFS | VIYSDGRRTFYGDSTK | GRAAGTFQS | nd / 3.84 / nd | 3.84 | 2/9 (3.50) |
| GFTLNSYGIC | VIYCDGVRTFYGDSVK | GRAAGTFDS | nd / nd / 5.64 | 5.64 | 1/9 (3.73) |
| GFTLNSYGIS | VIYSDGRRTFYGMSVK | GRAAGTFCS | 3.60 / nd / nd | 3.60 | 0/9 |
| GMTLNSYGIS | VIYSDGRRTFYGDSVK | GRAAGTFPS | nd / nd / nd | nd | 1/9 (2.53) |
| GFTLNSYGIS | VIYSDGRRTWYGDSVK | GRAAGTFDS | 1.44 / 1.33 / 1.55 | 1.44 | 4/9 (4.44) |
| GFTLFSYGIS | VIYSDSRRTFYGDSVE | GRAAGTFDS | nd / nd / nd | nd | 0/9 |
| VFTLNSYEIS | VIYSDGRRTFYGRSVK | GRAAGTFDS | 6.00 / 3.46 / nd | 4.73 | 6/9 (4.37) |
| GFTNNSYGIS | VIYSDGARTFYGDSVK | GYAAGTFDS | nd / 4.39 / nd | 4.39 | 2/9 (3.96) |
| GFTLNSYGIS | VKYSDGRRTFYGDSVK | ERAAGTFDG | 5.04 / 4.08 / 5.19 | 4.77 | 7/9 (4.86) |
| GFTLNSYGIK | VIYNDGRRTFYGDSVK | GEAAGTFDS | 6.02 / 5.13 / 5.91 | 5.69 | 1/9 (4.07) |
| RFTLNSYGIS | VIYDDGRRTFYGDSVK | GRAAGTCDS | nd / nd / nd | nd | 4/9 (4.03) |
| GFTLNSYGIS | VIYSAGRRTFYGDSVV | GRAAGTFDS | nd / nd / 3.69 | 3.69 | 0/9 |
| GFTLNSYGIV | VIYSDGRRTFYGDFVK | GRPAGTFDS | 6.30 / nd / nd | 6.30 | 2/9 (4.76) |
| GFTLNSYGIS | VIYSDNRRTFYGDSVK | GRAAGQFDS | nd / nd / nd | nd | 1/9 (3.26) |
| EFTLNSYGIS | VIYSDGRATFYGDSVE | GRAAGTFDS | nd / 4.41 / nd | 4.41 | 3/9 (4.10) |
| GFTLNSPGIS | VIYSDGRRWFYGDSVK | GRAAGTFDS | nd / nd / nd | nd | 5/9 (4.54) |

Top 5 of the variants detected in all replicates, tightest first:

| CDR-H1 | CDR-H2 | CDR-H3 | log10 Kd, replicates | log10 Kd (nM), mean | empty controls |
|---|---|---|---|---|---|
| GFTLNTYGIS | VIYSDGRRTFYGDSVV | GRNAGTFDS | 0.65 / 0.86 / 0.75 | 0.76 | 0/9 |
| GFTLNSYGIS | VIYSDGRRTWYGDSVK | GRAAGTFDS | 1.44 / 1.33 / 1.55 | 1.44 | 4/9 (4.44) |
| EFTLNSYGIS | VIYWDGRRSFYGDSVK | GRAAGTFDS | 1.66 / 2.21 / 2.32 | 2.06 | 0/9 |
| GFTLNSYGIS | VKYSDGRRTFYGDSVK | ERAAGTFDG | 5.04 / 4.08 / 5.19 | 4.77 | 7/9 (4.86) |
| GFTLNSYGIK | VIYNDGRRTFYGDSVK | GEAAGTFDS | 6.02 / 5.13 / 5.91 | 5.69 | 1/9 (4.07) |